The text below walks through data of patent publication US8729110B1, “2-thio-1,3,4-oxadiazoles derivatives as sphingosine-1 phosphate receptors modulators” (Allergan, Inc., priority 2012, dated 2014).

Sequences of proteins named here, by UniProt entry; tags and fusion partners are left off.
UniProt P21453, whole entry: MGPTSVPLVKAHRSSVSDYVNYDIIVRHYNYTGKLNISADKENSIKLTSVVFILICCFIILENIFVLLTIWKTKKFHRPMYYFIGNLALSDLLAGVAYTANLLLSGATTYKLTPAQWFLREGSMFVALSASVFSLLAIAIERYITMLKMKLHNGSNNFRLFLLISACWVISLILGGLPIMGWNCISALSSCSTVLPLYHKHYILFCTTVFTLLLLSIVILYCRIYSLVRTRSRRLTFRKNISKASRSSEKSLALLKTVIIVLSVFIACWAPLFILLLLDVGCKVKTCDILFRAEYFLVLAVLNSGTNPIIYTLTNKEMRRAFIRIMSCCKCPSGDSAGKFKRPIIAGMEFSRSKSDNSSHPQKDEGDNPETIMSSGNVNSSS

What is called EC50 is the concentration that produces a half-maximal response.

The assay concerns the target human S1P1 receptor (Homo sapiens, UniProt P21453). Kind of assay: GTP γ35S binding assay for S1P1 activity. The following applies: read-out: S1P1 EC50; activity potency, S1P1 receptor from GTP γ35S binding; 5 μg membrane protein; test compounds 0.08 to 5,000 nM; 30 min at 25° C. How it is done:
Compounds were synthesized and tested for S1P1 activity using the GTP γ^35S binding assay. These compounds may be assessed for their ability to activate or block activation of the human S1P1 receptor in cells stably expressing the S1P1 receptor.
GTP γ^35S binding was measured in the medium containing (mM) HEPES 25, pH 7.4, MgCl2 10, NaCl 100, dithitothreitol 0.5, digitonin 0.003%, 0.2 nM GTP γ^35S, and 5 μg membrane protein in a volume of 150 μl. Test compounds were included in the concentration range from 0.08 to 5,000 nM unless indicated otherwise. Membranes were incubated with 100 μM 5′-adenylylimmidodiphosphate for 30 min, and subsequently with 10 μM GDP for 10 min on ice. Drug solutions and membrane were mixed, and then reactions were initiated by adding GTP γ^35S and continued for 30 min at 25° C. Reaction mixtures were filtered over Whatman GF/B filters under vacuum, and washed three times with 3 mL of ice-cold buffer (HEPES 25, pH7.4, MgCl2 10 and NaCl 100). Filters were dried and mixed with scintillant, and counted for ^35S activity using a β-counter. Agonist-induced GTP γ^35S binding was obtained by subtracting that in the absence of agonist. Binding data were analyzed using a non-linear regression method. In case of antagonist assay, the reaction mixture contained 10 nM […] in the presence of test antagonist at concentrations ranging from 0.08 to 5000 nM.
On the technique in general: GTPγS is a poorly hydrolysed GTP analogue; its binding reports G protein activation.

On to `Cc1ccc(C(C)Sc2nnc(-c3ccc(CNCCCP(=O)(O)O)cc3)o2)cc1C` (stereo not shown), for which the concentration giving a half-maximal response (EC50) is 1.05 µM.
